ChEMBL document CHEMBL5390287, “Discovery of a Tritiated Radioligand with High Affinity and Selectivity for the Histamine H3 Receptor” (ACS Med Chem Lett, 2023)

Chains of the proteins cited; added tags and fusions are not shown. Lines headed by an entry give the natural chain unless they say otherwise; changes in a name come on top.
UniProt Q9Y5N1: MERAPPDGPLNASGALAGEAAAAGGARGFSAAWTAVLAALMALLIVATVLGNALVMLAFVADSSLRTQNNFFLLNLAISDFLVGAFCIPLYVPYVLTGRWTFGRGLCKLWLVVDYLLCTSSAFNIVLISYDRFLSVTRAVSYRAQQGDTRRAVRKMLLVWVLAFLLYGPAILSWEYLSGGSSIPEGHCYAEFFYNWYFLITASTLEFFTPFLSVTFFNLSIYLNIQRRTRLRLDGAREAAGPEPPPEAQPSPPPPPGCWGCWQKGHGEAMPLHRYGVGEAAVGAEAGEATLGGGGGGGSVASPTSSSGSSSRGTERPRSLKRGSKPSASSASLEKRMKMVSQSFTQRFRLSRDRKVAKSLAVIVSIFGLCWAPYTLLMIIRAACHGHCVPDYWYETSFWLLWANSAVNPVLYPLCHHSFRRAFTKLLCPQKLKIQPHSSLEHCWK

What was measured:
[1] = target: T1, Histamine H3 receptor (Homo sapiens, UniProt Q9Y5N1); assay: Displacement of [3H]UR-MN259 from SP-FLAG tagged human histamine H3 receptor expressed in HEK293T cells assessed as inhibition constant incubated for 60 min by scintillation counter analysis; format: cell-based
[2] = target: T1, Histamine H3 receptor; assay: Binding affinity to SP-FLAG tagged human histamine H3 receptor expressed in HEK293T cells using sodium containing Leibovitz's L-15 medium incubated for 60 min by scintillation counter analysis; format: cell-based

**Q.** NC(=NCc1ccc(Cl)cc1)SCCCc1cnc[nH]1 [CLOBENPROPIT] was tested. Which Ki [1] did it give?
**A.** 1.45 nM

**Q.** And the Ki [2]?
**A.** 0.347 nM
